From patent publication US8426353B2, “Process for preparing polyurea microcapsules” (Firmenich SA, priority 2008, dated 2013)

Assay: LogP of the perfume ingredients

## CC(=O)/C=C/C1=C(C)CCCC1(C)C [β-Ionone]
Ingredients of the perfume of Example 6 (Table 1)
  LogP: 4.42
Ingredients of the perfume of Example 9 (Table 9)
  LogP: 4.42
